Yeast mating assay B: variants of the scFv Ab-14

All variants were tested on one target, the spike HR2 peptide PDVDLGDISGINAS (SARS-CoV-2).

Parent: Ab-14, a human scFv built as VH, a 15-residue (Gly4Ser)3 linker, VL. Only the CDRs of the heavy chain vary.
VH: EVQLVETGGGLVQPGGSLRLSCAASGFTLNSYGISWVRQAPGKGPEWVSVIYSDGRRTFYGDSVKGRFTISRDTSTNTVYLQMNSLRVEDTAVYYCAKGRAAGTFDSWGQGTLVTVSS
VL: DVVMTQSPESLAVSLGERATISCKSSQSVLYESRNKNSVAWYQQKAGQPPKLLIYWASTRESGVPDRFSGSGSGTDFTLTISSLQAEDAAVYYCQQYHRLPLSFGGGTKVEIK

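Phage display of a naive human antibody library on the peptide gave the parent. These sequences belong to a second round, designed from the earlier measurements on random variants of the parent. Several design methods are mixed in this list. The scFvs were displayed on barcoded MATa yeast, the peptide on MATalpha yeast. Binding brings cells together so that they mate, and sequencing counts the barcode pairs among the diploids. Read counts were normalised to the haploid input and turned into Kd by a linear fit to BCL2-family pairs of known affinity, for each replicate. Each pool was mated in six replicate cultures.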

Variants are written as CDR1, CDR2 and CDR3 of the heavy chain (limits as in the source). Parent: GFTLNSYGIS, VIYSDGRRTFYGDSVK, GRAAGTFDS. Affinities are written as log10 Kd with Kd in nM; a lower number is a better binder. "n.d." means that the variant was in the library but no mating with the target was seen in that replicate; the authors take this as a sign of poor binding, and no number exists. The parent sequence was in this pool as ten entries: three were never detected, three once, and four in most replicates, with averages from 0.34 to 2.37. As a blank, each scFv also met three strains without target: over all heavy chain designs, 1% of these pairings were detected, typically at 2.08 and seldom below 0.84. The control count says in how many pairings with the empty strains this scFv gave a signal, with their mean in brackets. A sequence measured in both rounds can read differently, since the two assays cover different ranges. The authors averaged sequences with at least three values out of six and counted those with two or fewer as poor binders.

"log10 Kd, replicates",signal with controls,CDR-H1,CDR-H2,CDR-H3
n.d. n.d. n.d. n.d. n.d. n.d.,0 of 18,GFSIDEYGIS,VIYADGVRTAVDTSVK,GQLAAYFDK
-0.36 0.16 -0.30 -0.44 0.14 0.26,0 of 18,GFDLDEYGIS,VIYADGVRTAYADSVK,GNNAGTFDI
n.d. 1.01 n.d. n.d. n.d. 1.41,0 of 18,GFTLNSYGIS,VIYSDGRRTSYGDSVK,GRAAGTFDS
0.87 0.62 0.82 0.60 0.64 0.64,0 of 18,GFELNEYGIS,VIYSDGRRTYYGDSVK,GRAAGTFDS
-0.38 -0.41 -0.67 -0.32 -0.66 -0.61,0 of 18,GFDLNEYGIS,VIYADGMRTAYIDSVK,GNTAGTFDL
0.65 0.44 0.62 0.53 2.00 0.99,1 of 18 (1.76),GFTLNEYGIS,VIYSDGRRTFYGNSVK,GRTAGTFDS
n.d. 2.30 n.d. n.d. n.d. n.d.,0 of 18,GFTLNHYGIS,VIYSDGRRTFYDDSVK,GQLPGTFDS
n.d. n.d. n.d. n.d. n.d. n.d.,0 of 18,GFDLDEMGIS,VIYADGRRTAYSNAVK,GNNVYGLMV
n.d. n.d. n.d. n.d. 1.06 1.55,0 of 18,GFDLNEYGIS,VIYADGRRTAYADSVK,GGNAGTFDV
0.27 0.12 -0.35 -0.39 -0.11 -0.17,1 of 18 (2.00),GFDLNEYGIS,VIYADGMRSFYADSVK,GNVAGTFDV
n.d. n.d. n.d. n.d. n.d. n.d.,0 of 18,GFTLESYGIS,VIYSDGRRTSYGDDVK,GRAAGTFDS
-0.01 -0.30 -0.90 -0.38 -0.17 -0.53,0 of 18,GFDLNEYGIS,VIYADGQRTAYADSVK,GNVAGTFDV
n.d. n.d. 1.53 n.d. 2.43 n.d.,0 of 18,GFDLGEYGIS,VIYADGQRAAYQQQFK,GEAGAAFDL
0.13 0.11 -0.14 -0.01 -0.30 -0.04,1 of 18 (1.49),GFNLNSYGIS,VIYSDGRRTFYSDSVK,GRVAGTFDS
1.12 -0.59 0.32 -0.12 -0.07 1.09,0 of 18,GFDLDEYGIS,VIYADGMRTAYADSVK,GEQAGTFDV
n.d. n.d. n.d. n.d. n.d. n.d.,0 of 18,GDVLKEYGIS,VIYADGMRTSYVQDVK,GQKSGIFIV
n.d. 1.34 n.d. 1.66 n.d. n.d.,0 of 18,WFNLNSYGIS,VIYSDGRRTFYADSVK,GNAAGTFDS
0.20 0.20 0.00 -0.16 0.25 0.78,1 of 18 (2.26),GFDLNSYGIS,VIYSDGRRTMYGDSVK,GRQAGTFDS
-0.26 -0.28 -0.68 -0.56 -0.54 -0.53,1 of 18 (2.13),GFDLNEYGIS,VIYADGRRTFYIDSVK,GAVAGTFDM
n.d. 0.37 1.29 -0.08 -0.01 1.32,1 of 18 (0.15),GFTLNEYGIS,VIYSDGRRTMYDDSVK,GRCAGTFDS
1.22 1.27 0.66 0.44 0.75 0.34,0 of 18,GFSLDEYGIS,VIYADGIRRVYVDKVK,GNYGGDFIE
n.d. n.d. n.d. n.d. n.d. n.d.,0 of 18,GFSLDEYGIS,VIYADGLRTQYHNKVK,GLQGGIFDQ
n.d. n.d. n.d. n.d. n.d. n.d.,0 of 18,GKKLDEYGIS,VIYADGQRAAYTDDVK,GLQNNVQIV
n.d. n.d. 0.22 -0.45 -0.49 n.d.,0 of 18,GFSLMSYGIS,VIYSDGRRTFYHDSVK,GRAAGTFDS
n.d. n.d. n.d. n.d. n.d. n.d.,0 of 18,GFTLNSYGIS,VIYSDGRRTFYGDSVK,GGAAGTFPS
0.18 0.83 0.68 0.40 1.27 0.60,0 of 18,GFDLNEYGIS,VIYADGMRTAYTDSVK,GEVAGTFDT
n.d. n.d. n.d. n.d. n.d. n.d.,0 of 18,GFKLFSYGIS,VIYSDGRRTFIHDSVK,GRAAGTFNS
n.d. n.d. n.d. n.d. n.d. n.d.,1 of 18 (1.30),GFTLDSYGIS,VIYSDGRRTFYGDSVK,GRAAGTFTR
0.21 0.14 -0.24 -0.29 0.09 -0.15,0 of 18,GFDLNEYGIS,VIYADGRRTQYIDSVK,GNVAGTFDV
n.d. n.d. n.d. n.d. n.d. n.d.,0 of 18,GFDLDEYGIS,VIYADGIRQYAQDNVK,GLLSGMTIT
0.99 1.07 1.23 1.22 0.95 1.17,0 of 18,GFELNMYGIS,VIYSDGRRTFYGDSVK,GRAAGTFDS
n.d. n.d. n.d. n.d. n.d. n.d.,0 of 18,GFTLNEYGIS,VIYSDGRRTFYGDSVK,GRAAGTFMC
-0.46 -0.55 -0.84 -0.86 -0.65 -0.44,0 of 18,GFDLNEYGIS,VIYADGRRTFYADSVK,GQLAGTFSI
n.d. n.d. 0.70 2.04 2.22 0.55,0 of 18,GFTLNSYGIS,VIYSDGMRTFYGDSVK,RRAAGTFDS
n.d. n.d. n.d. n.d. n.d. n.d.,0 of 18,GFTLNSYGIS,VIYSDGRRTFYSDSVK,GRAAGRFDS
-0.78 -0.74 -1.04 -0.56 -0.98 -0.58,1 of 18 (0.97),GFDLNEYGIS,VIYADGRRTFYADSVK,GEVAGTFDL
n.d. n.d. n.d. n.d. n.d. n.d.,1 of 18 (2.64),GFNLNSYGIS,VIYSDGRRTFYGDSVK,GRAMGTFDS
-0.03 -0.36 0.06 -0.45 -0.53 -0.02,0 of 18,GFDLDEYGIS,VIYADGKRTAYADDVK,GENAGTFDM
-0.85 -1.18 -0.90 -1.36 -1.21 -0.85,0 of 18,GFDLNEYGIS,VIYADGIRTAYADSVK,GNNAGTFDI

Repeated from above, the 2 best binders with a signal in all replicates:

CDR-H1,CDR-H2,CDR-H3,"log10 Kd, replicates",signal with controls
GFDLNEYGIS,VIYADGIRTAYADSVK,GNNAGTFDI,-0.85 -1.18 -0.90 -1.36 -1.21 -0.85,0 of 18
GFDLNEYGIS,VIYADGRRTFYADSVK,GEVAGTFDL,-0.78 -0.74 -1.04 -0.56 -0.98 -0.58,1 of 18 (0.97)

Data: MIT Lincoln Laboratory AlphaSeq set, Li et al. 2023, doi:10.1038/s41467-023-39022-2, as distributed in FLAb.